pKi: −log10 of the molar value.
Molecular target: Amyloid-beta precursor protein (Homo sapiens, UniProt P05067)
Assay: Binding affinity for Amyloid beta 1-40 aggregates fibrils in competition with BTA-1

Amino acid sequences for entries named in this document (tags omitted).
UniProt P05067, whole entry: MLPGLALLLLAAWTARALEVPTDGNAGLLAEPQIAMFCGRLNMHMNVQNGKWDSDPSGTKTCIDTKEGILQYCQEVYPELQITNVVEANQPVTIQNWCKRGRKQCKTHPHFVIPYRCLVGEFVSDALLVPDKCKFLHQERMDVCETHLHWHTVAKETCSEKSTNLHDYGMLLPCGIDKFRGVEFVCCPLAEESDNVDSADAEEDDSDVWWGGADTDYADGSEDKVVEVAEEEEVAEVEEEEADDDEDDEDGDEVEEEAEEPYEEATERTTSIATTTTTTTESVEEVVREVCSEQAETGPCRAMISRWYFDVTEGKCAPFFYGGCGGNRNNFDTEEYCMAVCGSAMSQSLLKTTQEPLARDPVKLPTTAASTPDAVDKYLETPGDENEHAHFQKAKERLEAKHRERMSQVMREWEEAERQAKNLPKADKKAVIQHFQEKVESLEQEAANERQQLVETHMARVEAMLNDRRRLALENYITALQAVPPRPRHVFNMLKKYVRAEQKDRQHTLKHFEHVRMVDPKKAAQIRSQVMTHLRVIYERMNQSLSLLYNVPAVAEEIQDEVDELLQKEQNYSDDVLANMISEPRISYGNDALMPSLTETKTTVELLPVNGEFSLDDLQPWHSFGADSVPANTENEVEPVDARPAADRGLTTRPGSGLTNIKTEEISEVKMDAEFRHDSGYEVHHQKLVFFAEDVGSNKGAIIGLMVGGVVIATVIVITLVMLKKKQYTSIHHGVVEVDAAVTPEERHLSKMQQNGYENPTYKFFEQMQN

- pKi: 6.24
Structure (SMILES): Cc1ccc2c(c1)sc(-c1ccc(N(C)C)cc1)[n+]2C

— ChEMBL document CHEMBL1145813, “Synthesis and evaluation of 11C-labeled 6-substituted 2-arylbenzothiazoles as amyloid imaging agents” (J Med Chem, 2003)
